One test concerns the target human μ-opiate receptor (Homo sapiens, UniProt P35372). The conditions noted are these: for Ki: read-out: Ki (μ) Mean, Table 1; for % Inhibition (μ) [1 μM]: test concentration 1 μM.
The next test deals with ORL 1-receptor (Homo sapiens, UniProt P41146). Put plainly: ORL 1 receptor binding assay with 3H-nociceptin/orphanin FQ, membranes of recombinant CHO-ORL 1 cells. The conditions noted are these: for Ki: read-out: Ki (ORL1) Mean, Table 1; for % Inhibition (ORL1) [1 μM]: test concentration 1 μM.

Protein sequences, listed by entry. Tags and fused reporters are not part of them.
UniProt P35372, whole entry: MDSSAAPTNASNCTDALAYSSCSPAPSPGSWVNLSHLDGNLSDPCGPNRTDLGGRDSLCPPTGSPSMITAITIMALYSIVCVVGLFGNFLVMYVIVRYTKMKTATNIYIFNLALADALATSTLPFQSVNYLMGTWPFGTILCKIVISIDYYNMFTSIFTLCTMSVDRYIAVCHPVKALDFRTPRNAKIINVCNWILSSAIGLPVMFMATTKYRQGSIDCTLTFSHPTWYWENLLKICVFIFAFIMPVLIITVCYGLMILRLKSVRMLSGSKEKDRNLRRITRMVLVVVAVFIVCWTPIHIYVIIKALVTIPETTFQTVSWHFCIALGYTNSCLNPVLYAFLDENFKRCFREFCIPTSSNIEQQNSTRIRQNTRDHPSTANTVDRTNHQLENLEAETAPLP
UniProt P41146, whole entry: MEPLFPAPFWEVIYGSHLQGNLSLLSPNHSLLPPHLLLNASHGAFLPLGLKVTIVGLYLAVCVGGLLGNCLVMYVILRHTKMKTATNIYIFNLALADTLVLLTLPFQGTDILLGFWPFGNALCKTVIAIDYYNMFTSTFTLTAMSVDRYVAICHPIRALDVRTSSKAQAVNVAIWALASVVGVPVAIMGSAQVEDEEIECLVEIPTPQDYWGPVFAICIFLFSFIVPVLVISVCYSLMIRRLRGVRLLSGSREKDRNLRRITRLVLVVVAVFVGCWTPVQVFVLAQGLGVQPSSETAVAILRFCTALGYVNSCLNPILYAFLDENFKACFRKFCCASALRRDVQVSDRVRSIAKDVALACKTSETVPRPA

Broadly, the Ki is a dissociation constant, usually derived from enzyme kinetics or from competition with a known ligand. With `CCCCC1(N(C)C)CCC(c2[nH]c3ccccc3c2CC(=O)OC)(c2[nH]c3ccccc3c2CC(=O)OC)CC1`, at human μ-opiate receptor, the Ki turned out to be 0.9 nM and the “% Inhibition (μ) [1 μM]” value is 103%. At ORL 1-receptor, the Ki worked out at 27 nM and the “% Inhibition (ORL1) [1 μM]” value turned out to be 96%.
For `CCCCC1(N(C)C)CCC(c2[nH]c3ccccc3c2CCO)(c2[nH]c3ccccc3c2CCO)CC1`, at human μ-opiate receptor, the Ki was 0.5 nM and the “% Inhibition (μ) [1 μM]” value was 96%. Besides, at ORL 1-receptor, the inhibition constant Ki amounted to 1 nM and the “% Inhibition (ORL1) [1 μM]” value turned out to be 98%.

(Values after patent US7977370B2, “(Hetero)aryl cyclohexane derivatives” (dated 2011).)
